The chains behind the UniProt entries cited, without tags or fusion partners. Residues count along the entry.
UniProt P08253, 110-660 limits assumed: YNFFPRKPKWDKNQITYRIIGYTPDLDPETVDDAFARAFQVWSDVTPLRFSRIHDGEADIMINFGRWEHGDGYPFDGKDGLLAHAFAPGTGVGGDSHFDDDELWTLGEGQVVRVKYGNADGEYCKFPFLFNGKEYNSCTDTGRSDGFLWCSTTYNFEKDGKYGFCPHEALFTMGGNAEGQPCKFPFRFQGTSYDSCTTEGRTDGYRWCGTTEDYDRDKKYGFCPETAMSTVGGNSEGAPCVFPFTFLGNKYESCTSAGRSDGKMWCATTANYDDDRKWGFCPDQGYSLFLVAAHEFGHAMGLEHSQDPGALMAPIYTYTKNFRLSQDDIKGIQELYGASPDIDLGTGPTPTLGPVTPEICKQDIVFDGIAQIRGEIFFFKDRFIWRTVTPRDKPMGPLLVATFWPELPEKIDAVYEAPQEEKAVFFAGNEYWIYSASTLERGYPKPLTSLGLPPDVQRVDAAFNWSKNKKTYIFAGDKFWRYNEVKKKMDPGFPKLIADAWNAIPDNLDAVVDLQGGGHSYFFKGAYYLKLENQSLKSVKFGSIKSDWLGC
UniProt P14780, 107-707 limits assumed: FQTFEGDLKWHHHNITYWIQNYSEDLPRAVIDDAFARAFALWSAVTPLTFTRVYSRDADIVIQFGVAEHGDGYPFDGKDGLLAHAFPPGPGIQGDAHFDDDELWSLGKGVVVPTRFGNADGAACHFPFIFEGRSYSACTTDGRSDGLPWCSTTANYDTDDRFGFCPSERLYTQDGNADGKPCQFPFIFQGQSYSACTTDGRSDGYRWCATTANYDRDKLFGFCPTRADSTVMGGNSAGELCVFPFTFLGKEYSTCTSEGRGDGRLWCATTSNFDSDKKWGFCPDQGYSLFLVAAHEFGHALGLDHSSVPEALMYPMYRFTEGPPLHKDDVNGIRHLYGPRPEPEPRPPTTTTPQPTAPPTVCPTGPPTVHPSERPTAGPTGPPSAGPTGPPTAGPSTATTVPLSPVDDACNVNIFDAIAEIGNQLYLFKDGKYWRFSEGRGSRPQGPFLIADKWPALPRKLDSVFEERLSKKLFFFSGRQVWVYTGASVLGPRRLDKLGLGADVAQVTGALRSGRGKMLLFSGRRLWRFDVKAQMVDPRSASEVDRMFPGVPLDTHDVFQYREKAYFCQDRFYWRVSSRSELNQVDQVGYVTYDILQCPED

According to patent US6548667B2, “Sulfonamide derivative as a matrix metalloproteinase inhibitor” (Samsung Electronics Co. Ltd., priority 2000, dated 2003):

Legend:
gelatinase A (MMP-2) = gelatinase A (MMP-2) (Homo sapiens, UniProt P08253); test: In vitro inhibition on gelatinase A (MMP-2), fluorescent synthetic peptide substrate; details: read-out: IC50 (nM) MMP-2; Table 1
Text: In vitro Inhibition on Gelatinase A (MMP-2)
(§1) The present test was accomplished by measuring the fluorescence intensity of a fluorescent material (7-methoxycoumarin-4-acetyl-Pro—Leu—Gly) produced from the cleavage of a fluorescent synthetic peptide substrate ((7-methoxycoumarin-4-acetyl-Pro—Leu—Gly—Leu-β-(2,4-dinitrophenylamino) Ala—Ala—Arg—NH2 (Sigma Chem. Co. U.S.A.)) by gelatinase A (Boehringer Manneheim cat# 1782916, from human fibrosarcoma cells).
(§2) Enzymatic reaction employing a fluorescent synthetic substrate was accomplished by putting test compounds, TNBC buffer solution (25 mM Tris-HCl, pH 7.5, 0.1M NaCl, 0.01% Brij-35, 5 mM CaCl2), gelatinase A (final concentration in well: 4.17 nM) activated with 1 mM of APMA (aminophenylmercuric acetate) for 30 minutes at 37° C. just before the enzymatic reaction and the substrate, fluorescent synthetic peptide (final concentration in well: 9.15 uM) in 96 well plate and then reacting for 30 minutes at 37° C., and the fluorescence intensity was measured at excitation 328 nm and emission 393 nm by spectrofluorimeter (Fmax(molecular device)). The inhibition rate (%) was calculated from the following equation: [formula]
A represents fluorescence intensity before the reaction with an inhibitor;
B represents fluorescence intensity after the reaction with an inhibitor; […]
D represents fluorescence intensity after the reaction without an inhibitor.

gelatinase B (MMP-9) = gelatinase B (MMP-9) (Homo sapiens, UniProt P14780); test: In vitro inhibition on gelatinase B (MMP-9), fluorescent synthetic peptide substrate; details: read-out: IC50 (nM) MMP-9; Table 1
Text: as §1, §2
In vitro Inhibition on Gelatinase B (MMP-9) […]

## CCCCCCSc1nc2ccc(S(=O)(=O)NC(Cc3ccccc3)P(=O)(O)O)cc2s1 (centres unmarked)
Gelatinase A (MMP-2)
  IC50: 40100 nM
Gelatinase B (MMP-9)
  IC50: 290000 nM
